Earlier results in patent US20180155693A1, “Method of Differentiating Stem Cells” (BioTime, Inc., priority 2008, published 2018).

Conditions: cited from earlier work

insulin
half-life: 5 min
